Patent US7126027B2, “N-[(1-dimethylaminocycloalkyl)methyl]benzamide derivatives” (Akzo Nobel N.V., priority 2002, dated 2006)

By UniProt entry, the sequences of proteins in these tests, tags left out. Where a name states a change or a piece, a line headed by the entry shows the natural chain unless it says otherwise.
UniProt Q9Y345: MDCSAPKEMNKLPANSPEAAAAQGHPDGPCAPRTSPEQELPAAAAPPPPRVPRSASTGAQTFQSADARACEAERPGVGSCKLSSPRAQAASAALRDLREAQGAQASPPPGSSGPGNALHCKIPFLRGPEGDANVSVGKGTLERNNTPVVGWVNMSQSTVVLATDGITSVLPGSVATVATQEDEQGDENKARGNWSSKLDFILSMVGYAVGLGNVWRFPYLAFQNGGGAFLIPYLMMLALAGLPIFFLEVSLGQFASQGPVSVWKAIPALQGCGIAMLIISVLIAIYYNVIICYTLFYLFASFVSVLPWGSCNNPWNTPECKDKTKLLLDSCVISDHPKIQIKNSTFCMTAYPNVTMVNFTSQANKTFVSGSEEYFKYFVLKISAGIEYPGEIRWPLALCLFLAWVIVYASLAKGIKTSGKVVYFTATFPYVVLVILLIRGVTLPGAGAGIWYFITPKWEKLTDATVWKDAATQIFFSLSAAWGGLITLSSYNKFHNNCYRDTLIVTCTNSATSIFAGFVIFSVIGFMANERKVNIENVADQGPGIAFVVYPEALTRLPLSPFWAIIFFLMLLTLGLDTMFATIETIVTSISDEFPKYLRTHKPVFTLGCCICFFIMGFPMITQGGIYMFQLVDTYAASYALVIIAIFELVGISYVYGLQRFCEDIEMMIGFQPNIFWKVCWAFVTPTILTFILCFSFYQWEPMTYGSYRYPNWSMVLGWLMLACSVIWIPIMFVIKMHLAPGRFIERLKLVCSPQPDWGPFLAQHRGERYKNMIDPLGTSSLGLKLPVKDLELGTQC

Target: hGlyT-2 (Homo sapiens, UniProt Q9Y345)
Experiment: Glycine uptake assay, CHO cells stably transfected with hGlyT-2
Assay type: cell-based
Settings: read-out: Inhibition of glycine transport by hGlyT-2 IC50, [3H]-glycine 30 μM, 37° C., 10 minutes
Protocol: Glycine uptake assays were performed as described by Morrow et al. (FEBS Lett. 1998, 439, 334–340) using CHO cells stably transfected with either hGlyT-1b or hGlyT-2. Cells were grown in 96 well microtitre plates (30,000 cells/well) for 24–48 hours before removal of culture medium and addition of Hanks Balanced Salt Solution (HBSS) containing [^3H]-glycine (30 μM) and varying concentrations of test compounds. Plates were incubated at 37° C. for 10 minutes and uptake terminated by washing three times with ice-cold HBSS. After removal of excess liquid, scintillation cocktail was added to each well, prior to counting in a plate counter. Data were analysed using the GraphPad Prism™ analysis package and the sigmoid dose-response curve fitting option to produce IC50 (the concentration of test compound producing 50% inhibition of uptake) values.

Question: Which IC50 does the source give for `CCCCOc1c(OC)cc(C(=O)NCC2(N(C)CC)CCCCC2)cc1OC` here?
Answer: Its IC50 is 1320 nM.
